The term Ki denotes a measure of affinity in units of concentration, obtained from inhibition or displacement. A word on the IC50: it is the concentration needed to halve the response being measured.

By UniProt entry, the sequences of proteins in these tests, tags left out. Residues count along the entry.
UniProt O42275, 24-633: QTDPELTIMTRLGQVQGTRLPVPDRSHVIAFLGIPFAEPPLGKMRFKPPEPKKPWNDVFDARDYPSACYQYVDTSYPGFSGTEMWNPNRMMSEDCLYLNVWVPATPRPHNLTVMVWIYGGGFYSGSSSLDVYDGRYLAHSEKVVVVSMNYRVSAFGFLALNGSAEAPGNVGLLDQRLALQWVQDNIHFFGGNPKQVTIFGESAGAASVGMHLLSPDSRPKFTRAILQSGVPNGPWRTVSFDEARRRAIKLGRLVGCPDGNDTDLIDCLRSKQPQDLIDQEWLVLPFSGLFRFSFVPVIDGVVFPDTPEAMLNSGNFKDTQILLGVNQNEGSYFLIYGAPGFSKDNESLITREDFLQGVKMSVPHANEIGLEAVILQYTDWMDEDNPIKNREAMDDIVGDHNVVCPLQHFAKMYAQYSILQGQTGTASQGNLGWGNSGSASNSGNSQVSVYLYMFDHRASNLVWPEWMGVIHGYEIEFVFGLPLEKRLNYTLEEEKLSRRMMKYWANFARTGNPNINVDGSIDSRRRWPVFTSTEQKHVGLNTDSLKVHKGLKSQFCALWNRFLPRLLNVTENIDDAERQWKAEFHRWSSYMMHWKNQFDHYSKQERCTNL

Structures are written as SMILES.

Experiment [1] concerns the target T1, AChE (Electrophorus electricus, UniProt O42275). In words: biochemical. The settings on record: for IC50: IC50 for AChE. On the procedure: The modified method of Ellman et al. was adopted to measure AChE activity. Briefly, 25 µl (0.3 U/ml) AChE from Electric eel fish (Electrophorus electricus) was incubated with and without different concentrations of drugs selected from Molecular Docking studies. The reaction was carried out for 15 min at 25°C. […] Total volume of the reaction was made up to 1 ml by Tris buffer, pH 8.0. ATCI hydrolysis was measured by colored product formation, 5-thio-2-nitrobenzoate anion by reaction between DTNB and thiocholine, a hydrolysis product of ATCI. The formation of the colored product was measured at 405 nm wavelength after 30 min. The background was determined from negative controls (omission of AChE enzyme).
Lineweaver-Burk double reciprocal plot was plotted in order to determine the Km. […] The Ki was calculated directly from IC50 value using Cheng-Prussoffs classical equation [45]. [drawing 1]
The reciprocals of reaction rate (1/v) for each inhibitor concentration were plotted against the reciprocals of the substrate concentrations (1/S).

Experiment [2] addresses T1, AChE. The settings on record: ITC, 25°C, Tris buffer pH 8.0. In general terms: Isothermal titration calorimetry measures the heat released or taken up as one component is titrated into another.

Take `CNCCCC1c2ccccc2C=Cc2ccccc21` [protriptyline]: the Ki in experiment [1] was around 1 µM. Further, the IC50 was around 60 µM in experiment [1] (0.05–0.8 mM concentration range of drugs) and below 150 µM in experiment [1] (summary statement). Further, the “type of AChE inhibition” value in experiment [1] (Lineweaver-Burk plot, 60 µM protriptyline) was “competitive inhibition”. Moreover, in experiment [2], the heat of binding entry was “strongly exothermic”.

Source of the values: publication PMC4139341 (PLoS ONE, 2014).
